These results are taken from ChEMBL document CHEMBL3124799, “Discovery of 1,3,4-oxidiazole scaffold compounds as inhibitors of superoxide dismutase expression” (Bioorg Med Chem Lett, 2014).

Amino acid sequences for entries named in this document (tags omitted). A change or cut given only in a name is not applied to a line headed by its entry.
UniProt P49841: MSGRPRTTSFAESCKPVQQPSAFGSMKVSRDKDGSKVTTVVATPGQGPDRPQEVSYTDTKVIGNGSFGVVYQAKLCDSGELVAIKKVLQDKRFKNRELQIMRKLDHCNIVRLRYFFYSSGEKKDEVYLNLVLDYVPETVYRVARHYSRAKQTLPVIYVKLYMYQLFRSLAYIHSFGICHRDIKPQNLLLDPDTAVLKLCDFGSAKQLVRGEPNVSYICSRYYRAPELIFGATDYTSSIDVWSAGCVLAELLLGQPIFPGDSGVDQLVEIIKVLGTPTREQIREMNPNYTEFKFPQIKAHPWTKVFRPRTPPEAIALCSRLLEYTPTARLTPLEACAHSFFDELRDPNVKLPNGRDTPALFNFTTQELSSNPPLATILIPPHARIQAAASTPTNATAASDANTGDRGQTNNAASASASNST

This experiment addresses Glycogen synthase kinase-3 beta (Homo sapiens, UniProt P49841). As to the kind of experiment: Inhibition of GSK3beta (unknown origin).

In the case of `O=C1NC(=O)C(c2cn(CCCO)c3ncccc23)=C1c1cnccn1`, inhibition was half-maximal at 0.025 µM (IC50).
